Literature values as cited in patent US5776946A, “Peripheral benzodiazepine receptor ligands as antiinflammatory agents” (priority 1995, dated 1998).

The chains behind the UniProt entries cited, without tags or fusion partners.
UniProt P30536, whole entry: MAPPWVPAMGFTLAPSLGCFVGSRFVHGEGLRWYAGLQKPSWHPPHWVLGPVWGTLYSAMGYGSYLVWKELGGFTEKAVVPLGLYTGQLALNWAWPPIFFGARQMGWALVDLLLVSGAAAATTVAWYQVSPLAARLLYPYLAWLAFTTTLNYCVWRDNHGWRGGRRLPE

Tests used:
[1] = target: T1, peripheral benzodiazepine receptors, human brain tissue (Homo sapiens, UniProt P30536); conditions: read-out: equilibrium dissociation constant, or affinity (Kd); cited from earlier work
T1 construct: host or cells: human brain tissue (Doble et al., 1987)

[2] = target: T2, peripheral benzodiazepine receptors in brain (Homo sapiens, UniProt P30536); conditions: read-out: ability to displace bound PK 11195 from peripheral benzodiazepine receptors (Ki); cited from earlier work
T2 construct: In brain, this has been determined to be 3.5 nM for PK 11195 itself; host or cells: brain (Doble et al., 1987)

Structure (SMILES): CCC(C)N(C)C(=O)c1cc2ccccc2c(-c2ccccc2Cl)n1 (centres unmarked) [PK 11195, 1-(2-chlorophenyl)-N-methyl-N-(1-methylpropyl)-3-isoquinolinecarboxamide]
- Kd [1]: 4.3 nM
- Ki [2]: 3.5 nM
